Measured values: patent publication US20250152723A1, “ANTIBODY-DRUG CONJUGATES INVOLVING ERIANIN AND THE FABRICATION METHODS AND APPLICATIONS THEREOF” (Laboratory for Synthetic Chemistry and Chemical Biology …, priority 2023, published 2025)
Like-named read-outs stand apart in the source and are kept apart here.

Tests used:
[1] = test system: SK-BR-3 breast cancer cell (HER2+); assay: In vitro anti-proliferative study (NBB staining, 6 days); assay type: cell-based; conditions: SK-BR-3 (HER2+), 6 days incubation
Protocol: (§1) The selective binding and internalization behavior of ADC are then examined by flow cytometry and confocal microscopy, using two HER2-overexpressed SK-BR-3 breast cancer cells and SK-OV-3 ovarian cancer cells, as well as two HER2-negative MDA-MB-231 breast cancer cells and MCF-10A breast epithelial cells. Briefly, Different cell lines (1×10^3 cells/well) are seeded in a microtiter plate (96 well) and incubated overnight before the treatment. Different concentrations of erianin, trastuzumab and ADC are added into the wells and then incubated for 6 days. After the media is removed, the cells are fixed with formaldehyde (3%; 50 μL) in PBS and stained with NBB reagent (0.05%, 0.1 M sodium acetate, 9% acetic acid; 50 μL) for overnight. The stained cells in each well are washed thrice gently with deionized water and solubilized in sodium hydroxide solution (50 mM; 100 μL). The cell viability is determined by measuring the absorbance of 620 nm in each well by microplate reader. The experiments are repeated in triplicate. The IC50 values are presented as the mean±standard deviation.

[2] = test system: MDA-MB-231 breast cancer cell (HER2−); assay: as above; assay type: cell-based; conditions: MDA-MB-231 (HER2−), 6 days incubation
Protocol: as §1

[3] = test system: MCF-10A breast epithelial cell (HER2−); assay: as above; assay type: cell-based; conditions: MCF-10A (HER2−), 6 days incubation
Protocol: as §1

[4] = test system: SK-OV-3, SK-BR-3, MDA-MB-231 and MCF-10A cells; assay: In vitro anti-proliferative study, statements over several cell lines; assay type: cell-based
Protocol: as §1

[5] = test system: HER2-positive SK-OV-3 human ovarian cancer xenograft; assay: Antitumor activity in SK-OV-3 xenograft model; assay type: in vivo, Female BALB/cAnN-nu (nude) mice; conditions: 20 mg/kg intravenous, four doses (day 0, 4, 8, 12)
[6] = test system: SK-OV-3 ovarian cancer cell (HER2+); assay: In vitro anti-proliferative study (NBB staining, 6 days); assay type: cell-based, human; conditions: SK-OV-3 (HER2+), 6 days incubation
Protocol: as §1

[7] = test system: HER2-positive cancer cells and HER2-negative cell lines; assay: Confocal microscopic study of Alexa 647-labelled ADC; assay type: cell-based; conditions: incubated at 37° C., 24 h

Substance | IC50 ([1]; mean±SD, read-out: IC50) [nM] | IC50 ([1]; value in brackets) | IC50 ([2]; mean±SD, read-out: IC50) [µM] | IC50 ([2]; value in brackets) | IC50 ([3]; value in brackets) | IC50 ([3]; read-out: IC50) [µM] | cell growth inhibition ([4]; all the cells) | antitumor activity [5] | IC50 ([6]; mean±SD, read-out: IC50) [nM] | IC50 ([6]; value in brackets) | colocalization with LysoTracker Green [7] | anti-proliferative effect on HER2-negative cell lines ([4]; HER2-negative cell lines, compared with HER2-positive cells) | IC50 ([6]; mean±SD, listed as ADC, read-out: IC50) [nM]
Trastuzumab (mAb): a well-known monoclonal antibody that targets the HER2 receptor | > 4000 | (>0.60 mg/mL) | > 4 | (>0.60 mg/mL) | (>0.60 mg/mL) | > 4 | not obvious | apparent antitumor activity | > 4000 | (>0.60 mg/mL) | – | – | –
Trastuzumab-Erianin (ADC): trastuzumab conjugated with erianin through a Val-Cit cathepsin B cleavable linker and self-immolative spacer via maleimidocaproyl-cysteine; DAR 8 | 900 | (0.13 mg/mL) | 3.9 ± 0.05 | (0.58 mg/mL) | (>0.60 mg/mL) | > 4 | – | – | 590 ± 80 | (0.088 mg/mL) | some of the red dots of ADC are located at lysosomes | less effects | 600
